A short description of this data set: Aqueous solubility of rasagiline base and rasagiline salts. Conditions: water.

rasagiline citrate: the “concentration of solutions that could be prepared” value is “more than 70 % wt”.

The values are drawn from patent publication US20120003310A1 (priority 2009, published 2012).
